# Test results taken from patent publication US11674950B2, “Methods determining and treating cellular resistance to ADP-rtbosylating toxin” (priority 2017, dated 2023).
# System: SL-401 resistant CAL1 and THP1 clones
# Assay: SL-401 cytotoxicity after pulsatile non-cytotoxic azacitidine treatment
# Conditions: 4-week pulsatile azacitidine 300 nM 2d on/2d off; 6 CAL1 and THP1 clones
smiles,measurement,value
"Nc1ncn([C@@H]2O[C@H](CO)[C@@H](O)[C@H]2O)c(=O)n1 [azacitidine, 5-azacytidine]",reversal of SL-401 resistance,fully reversed SL-401 resistance
